résorption du produit data for 1 substance are collected here from EP1750770B1, “USE OF ORGANO-SILICON COMPOUNDS FOR CO[…] TISSUES” (Exsymol, priority 2004, dated 2005).

The conditions of the data set: in vivo.

Consider “salicylate de monométhylsilanetriol [SalSi-3OH]”, for which the résorption du produit entry is on record as “complète une heure après l'injection”.
